Assay results from PubChem BioAssay AID771 (SRMLSC, 2007).
The entries are a selection whose mix differs from that of the whole data set. The source made the active and inactive calls.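 Rule for the calls: active = growth inhibition above 90%, meaning viable cell count by imaging cut by more than 90% versus vehicle controls; inactive = growth inhibition below 90%.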

Assay: HT29 colon tumor cell growth inhibition, primary screen, imaging, high content imaging, 48 h, CellTiter-Glo (AID 771)
Conditions: HCS imaging cell count, at 10 µM, hits give high values

Structure (SMILES)	growth inhibition
Cc1cccc(OCC(=O)OC2CN3CCC2CC3)c1 (configuration not stated)	inactive: 38.1%
Cc1ccc(OCC(=O)OC2CN3CCC2CC3)cc1 (configuration not stated)	inactive: -63.7%
